Laboratory results from ChEMBL document CHEMBL1123886 (J Med Chem, 1987).

Tested on: Calf thymus DNA
Assay: Binding constant for DNA by ethidium bromide displacement
Assay type: nucleic-acid assay
Conditions: Bos taurus

## CNc1cc(NS(C)(=O)=O)ccc1Nc1c2ccccc2nc2ccccc12
  Log K: 6.42
